The values that follow come from paper PMC10470302 (iScience, 2023).

Sequences of proteins named here, by UniProt entry; tags and fusion partners are left off.
UniProt Q8IWX8, whole entry, looked up, tested part not stated: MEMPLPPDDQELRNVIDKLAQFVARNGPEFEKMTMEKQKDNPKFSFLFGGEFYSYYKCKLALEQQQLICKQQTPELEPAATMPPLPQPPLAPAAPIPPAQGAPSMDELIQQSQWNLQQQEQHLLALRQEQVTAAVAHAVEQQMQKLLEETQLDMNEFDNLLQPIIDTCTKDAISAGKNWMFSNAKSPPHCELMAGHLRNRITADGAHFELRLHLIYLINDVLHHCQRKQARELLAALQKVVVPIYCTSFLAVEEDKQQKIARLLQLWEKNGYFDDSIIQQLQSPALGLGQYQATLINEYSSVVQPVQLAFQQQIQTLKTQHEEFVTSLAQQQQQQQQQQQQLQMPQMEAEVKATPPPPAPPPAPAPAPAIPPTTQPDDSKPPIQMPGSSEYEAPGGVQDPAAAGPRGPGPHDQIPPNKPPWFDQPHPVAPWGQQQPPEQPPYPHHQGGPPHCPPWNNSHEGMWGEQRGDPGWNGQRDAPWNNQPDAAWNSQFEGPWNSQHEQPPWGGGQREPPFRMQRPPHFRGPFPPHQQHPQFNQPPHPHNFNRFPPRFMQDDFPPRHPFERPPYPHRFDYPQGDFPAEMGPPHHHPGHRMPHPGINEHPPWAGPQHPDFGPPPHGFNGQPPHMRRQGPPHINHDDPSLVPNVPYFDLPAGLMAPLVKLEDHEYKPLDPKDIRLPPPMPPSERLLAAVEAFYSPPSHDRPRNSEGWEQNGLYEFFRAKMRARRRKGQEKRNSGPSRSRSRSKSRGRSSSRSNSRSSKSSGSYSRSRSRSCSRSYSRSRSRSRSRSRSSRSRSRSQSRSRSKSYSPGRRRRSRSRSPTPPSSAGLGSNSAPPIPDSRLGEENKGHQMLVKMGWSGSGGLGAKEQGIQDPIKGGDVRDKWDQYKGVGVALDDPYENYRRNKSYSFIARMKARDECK

The assay concerns the target CHERP (SCAF6) 1-916 (UniProt Q8IWX8). The experiment in a line: immunofluorescence colocalisation, Pearson coefficient. The note with it: reference: untreated cells; sites S2,T4.

On to “RPB1 (largest subunit of RNA polymerase II), CTD 2 µM flavopiridol, 3 h”, for which the “other: colocalisation correlation value” was “weaker; reference 0.77”.
